Literature values, collected in PMC5760734, “Development of an oral once-weekly drug delivery system for HIV antiretroviral therapy” (Nature Communications, 2018).

Settings: dosed orally in pigs; cited from earlier work

cyclosporine A
concentrations achieved in pigs relative to those observed in humans: about one tenth
